Measurements taken from patent US8206621B2, “Use of ethanol as plasticizer for preparing subcutaneous implants containing thermolabile active principles dispersed in a PLGA matrix” (Mediolanum Pharmaceuticals Ltd., priority 2003, dated 2012).

Experiment: Biological potency of Interferon alfa-2a (monograph Interferon alfa-2 Concentrated solution Nr 1110, European Pharmacopoeia 4th Edition)
Settings: according to monograph Interferon alfa-2 Concentrated solution; active principle before extrusion

Substance: Interferon alfa-2a: protein Interferon alfa-2a, active principle with excipients
- Biological potency: 2.3×10^8 IU/mg of protein
